Test results published in ChEMBL document CHEMBL1148291, “Prediction of human volume of distribution values for neutral and basic drugs. 2. Extended data set and leave-class-out statistics” (J Med Chem, 2004).

Experiment: clinical
Conditions: human, in vivo

## CC(CN1c2ccccc2Sc2ccccc21)N(C)C (stereo unspecified) [PROMETHAZINE]
  Vd: 14 L/kg
